Reference: paper PMC5891061, “Electrophysiological mechanisms of vandetanib-induced cardiotoxicity: Comparison of action potentials in rabbit Purkinje fibers and pluripotent stem cell-derived cardiomyocytes” (PLoS ONE, 2018)

Tested on: rabbit Purkinje fibers
Assay: Action potential recording in rabbit Purkinje fiber
Settings: 1 μM, 1 Hz pacing

With `COc1cc2c(Nc3ccc(Br)cc3F)ncnc2cc1OCC1CCN(C)CC1` [Vandetanib] the APD50 was 249.5 ± 18.9 ms.
